US20090029366A1 (priority 2007, published 2009)
Some compounds may have been tested in ways that are not shown here.

Protein sequences, listed by entry. Tags and fused reporters are not part of them.
UniProt O60741, whole entry: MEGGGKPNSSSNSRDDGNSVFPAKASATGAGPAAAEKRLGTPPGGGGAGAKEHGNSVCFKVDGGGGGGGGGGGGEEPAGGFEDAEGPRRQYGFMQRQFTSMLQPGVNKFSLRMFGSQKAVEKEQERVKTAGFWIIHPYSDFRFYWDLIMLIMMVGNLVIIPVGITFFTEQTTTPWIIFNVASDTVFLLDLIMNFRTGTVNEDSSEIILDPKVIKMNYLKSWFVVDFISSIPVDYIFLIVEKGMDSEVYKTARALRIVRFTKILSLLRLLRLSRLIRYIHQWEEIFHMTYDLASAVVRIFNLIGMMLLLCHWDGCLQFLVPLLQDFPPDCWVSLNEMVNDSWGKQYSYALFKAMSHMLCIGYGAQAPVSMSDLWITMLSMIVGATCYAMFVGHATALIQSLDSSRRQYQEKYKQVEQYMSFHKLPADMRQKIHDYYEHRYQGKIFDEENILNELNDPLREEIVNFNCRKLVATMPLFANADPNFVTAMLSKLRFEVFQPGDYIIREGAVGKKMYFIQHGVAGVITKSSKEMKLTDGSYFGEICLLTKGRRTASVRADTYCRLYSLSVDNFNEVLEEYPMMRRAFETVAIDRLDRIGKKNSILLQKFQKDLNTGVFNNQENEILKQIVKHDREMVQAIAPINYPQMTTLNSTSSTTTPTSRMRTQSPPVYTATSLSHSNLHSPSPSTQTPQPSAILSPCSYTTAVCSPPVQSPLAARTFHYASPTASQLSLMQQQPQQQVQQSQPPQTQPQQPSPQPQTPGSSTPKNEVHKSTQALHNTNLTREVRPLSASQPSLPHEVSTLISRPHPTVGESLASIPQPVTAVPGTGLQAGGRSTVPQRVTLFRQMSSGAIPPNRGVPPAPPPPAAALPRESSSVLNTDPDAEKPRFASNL

Molecular target: human HCN1 (Homo sapiens, UniProt O60741)
Settings: CsCl 1 mM; HEK-293H human HCN1; current clamp

CsCl
reversal of hyperpolarization induced by low sodium/potassium diluent: reversed
